Data on 1 compound can be found in patent US20220369688A1, “ORAL COMPOSITIONS AND RELATED METHODS FOR REDUCING THROAT IRRITATION” (NICOVENTURES TRADING LIMITED, priority 2021, published 2022).

Structures are written as SMILES.

For this data set the following is noted: 1000 ppm nicotine, 1 molar equivalent sodium benzoate.

Turning to `CN1CCCC1c1cccnc1` (centres unmarked) [nicotine], the “nicotine partitioned in octanol due to benzoic acid (25.5/28.3)” value is given as 90% and the “total nicotine partitioned into octanol due to propensity of free nicotine (28.3-25.5)” value is reported as 2.8%.
